# According to PubChem BioAssay AID1273 (Columbia University Molecular Screening Center, 2008):
# This is a selection; strong and weak results do not stand in their true shares. Calls of active or inactive are those of the source.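 The calls were made as follows: active = inhibition above the mean plus 3 SD, with well images judged a real hit on visual review (cut at about 60% in these data, passing the limit was not always enough); inconclusive = inhibition over the cutoff but images rejected on review; inactive = inhibition not above the cutoff.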
# Experiment: inhibitors of insulin promoter-driven GFP, primary screen, imaging, TRM-6 cells (human fetal islet line), eGFP reporter, cell count (AID 1273)
# Conditions: at 2 µM, active compounds read high, reporter expression induced with tamoxifen
row,SMILES,inhibition
1,Cc1ccccc1NP(C)(=O)Nc1ccccc1C,inactive: 0%
2,O=P(Nc1nccs1)(c1ccccc1)c1ccccc1,inactive: 44.7%
3,CC(C)C(=O)NC(Sc1ccccc1)C(Cl)(Cl)Cl (stereo not drawn),inactive: 2.04%
4,CCN(/C(=N/P(=O)(N1CCOCC1)N1CCOCC1)N1CCOCC1)c1ccc(OC)cc1,inactive: -21.4%
5,CP(=O)(Nc1ccc(Cl)cc1)Oc1ccc(F)cc1 (stereo not drawn),inactive: 17.1%
6,COc1ccccc1OP(C)(=O)Nc1ccccc1Br (stereo not drawn),inactive: -45.5%
7,CC(C)(C)c1ccc(OP(C)(=O)O)cc1,inactive: -95.7%
8,CC1CCN(C(=O)Oc2c(Cl)cc(Cl)c3cccnc23)CC1,inactive: -22.2%
9,CN(C)C(=O)c1c([N+](=O)[O-])cc([N+](=O)[O-])cc1[N+](=O)[O-],inactive: 35.7%
10,CN(C)C(=O)OCCc1n(C)cc[n+]1C,inactive: 36.4%
11,CCN(CC)CC(O)COC(=O)C(O)(c1ccccc1)C1CCCCC1 (stereo not drawn),inactive: 0%
12,COc1ccc(OP(C)(=O)Nc2ccc(Br)cc2)cc1 (stereo not drawn),inactive: -24.3%
13,COc1ccc(C2=NCC(CBr)S2)cc1 (stereo not drawn),inactive: 51.2%
14,O=[N+]([O-])c1cc([N+](=O)[O-])c(CCNc2ccccc2)c([N+](=O)[O-])c1,inactive: 35%
15,CCc1nc2c(n1)c1c(non1O)c1c2no[n+]1[O-],inactive: 28.6%
16,CC(=O)N1C2C3N(C(C)=O)C1C1N(C(C)=O)C(C(N1C(C)=O)N3C(C)=O)N2C(C)=O,inactive: -10.8%
17,O=[N+]([O-])c1cccc2n[nH]nc12,inactive: -64.3%
18,COc1ccccc1OP(C)(=O)Nc1c(C)n(C)n(-c2ccccc2)c1=O (stereo not drawn),inactive: 0%
19,O=[N+]([O-])c1ncn(CCn2ncnc2[N+](=O)[O-])n1,inactive: 41.7%

row,SMILES,inhibition
1,CP(=O)(OC12CC3CC(CC(C3)C1)C2)OC12CC3CC(CC(C3)C1)C2,inactive: -17.1%
2,CCOC(=O)c1ccc(NP(C)(=O)Oc2ccc(Cl)cc2)cc1 (stereo not drawn),inactive: 13.3%
3,Cc1nc2ccc3ccccc3c2o1.O=[N+]([O-])c1cc([N+](=O)[O-])c(O)c([N+](=O)[O-])c1,inactive: 41.9%
4,CCN(N=Nc1nonc1N)c1nonc1N,inactive: 0%
5,COc1ccc(OP(C)(=O)Nc2ccccc2Br)cc1 (stereo not drawn),inactive: -47.1%
6,CCOP(=O)(Nc1ccccc1)OCC,inactive: -3.57%
7,COc1ccccc1OP(C)(=O)Nc1ccc(C)c(C)c1 (stereo not drawn),inactive: -9.09%
8,Oc1ccccc1CNc1ccccn1,inactive: 0%
9,O=C(NC(Sc1ccncn1)C(Cl)(Cl)Cl)c1ccccc1 (stereo not drawn),inactive: 26.7%
10,Cc1c(NP(C)(=O)Oc2ccc(C(C)C)cc2)c(=O)n(-c2ccccc2)n1C (stereo not drawn),inactive: 19.4%
11,CC(C)CC(=O)NC(Sc1ccc(Cl)cc1)C(Cl)(Cl)Cl (stereo not drawn),inactive: -3.33%
12,CCc1ccc(OP(C)(=O)O)cc1,inactive: 31.4%
13,CP(=O)(Nc1ccccn1)Oc1ccccc1 (stereo not drawn),inactive: 27%
14,COc1ccccc1OP(C)(=O)Nc1ccc(C)cc1C (stereo not drawn),inactive: -62.8%
15,Cc1ccc(N/C(=N/P(=O)(N2CCOCC2)N2CCOCC2)N2CCOCC2)cc1,inactive: -11.1%
16,NC(=O)c1cc([N+](=O)[O-])cc([N+](=O)[O-])c1N,inactive: 26.7%
17,CN1CCCC(OC(=O)C(c2ccccc2)c2ccccc2)C1 (stereo not drawn),inactive: -33.3%
18,CN(C)CCOC(=O)C(O)(c1ccccc1)C1CCCC1 (stereo not drawn),inactive: 3.33%
19,COc1ccc(OP(C)(=O)Nc2ccccn2)cc1 (stereo not drawn),inactive: -16.1%
